Data as given in patent US7713477B2, “Systems and methods for monitoring chemical and biological activities using differential measurements” (priority 2002, dated 2010).

B1: IL3: interleukin tested on TF-1 cells (protein, UniProt P08700 20-152, looked up)
Interleukin-3: APMTQTTPLKTSWVNCSNMIDEIITHLKQPPLPLLDFNNLNGEDQDILMENNLRRPNLEAFNRAVKSLQNASAIESILKNLLPCLPLATAAPTRHPIHIKDGDWNEFRRKLTFYLKTLENAQAQQTTLSLAIF

Assays:
TF-1 cells [1] = conditions: stated as known, background knowledge; cited from earlier work
TF-1 cells [2] = assay: Differential response of TF-1 cells against stimuli and controls at one, two and five minutes (FIG. 9B); format: cell-based; conditions: two and five minutes after stimulation, factor 100:1 dilution in d-PBS, 25 microliter into approximately 200 microliters cell suspension
Excerpt: In this set of experiments, the monitoring system as shown in FIG. 8 was used to directly compare the activity of a known modification of the extra-cellular environment to controls. In the monitoring system of FIG. 8, two sample chambers (formed a fluid channels) 800a and 800b, along with four ports 801a-d, were fabricated using micromachining techniques on an acrylic substrate. The dimensions of the channels were approximately 250 micrometers wide, 100 micrometers deep, and with a total length of approximately 1.5 centimeters. The substrate was fastened in a water-tight manner, using thin film epoxy, to a pre-fabricated printed circuit board (not explicitly shown), on which eight gold-plated copper conductive traces 820a-d and 830a-d of width approximately 250 micrometers were deposited. […]
FIG. 9B illustrates a second set of experiments, in which the differential responses of a population of TF-1 cells against numerous stimuli and controls are shown at one minute, two minutes, and five minutes after stimulation. […] One of the two fractions received a potential stimulus, and the other a control in the form of a quantity of pure Dulbecco's phosphate buffered saline (d-PBS)equal to the quantity of d-PBS which contained the stimulant. […]

Row | Molecule | known activity against TF-1 cells (TF-1 cells [1]) | differential response over the three controls (TF-1 cells [2])
1 | IL-2: interleukin tested on TF-1 cells | known not to have any significant activities against TF-1 cells | 
2 | B1 |  | significantly larger differential response over the three controls
